Measurements reported in patent EP1412028B1, “TETRAHYDROINDOLONE DERIVATIVES LINKED TO ARYLPIPERAZINES” (Spectrum Pharmaceuticals, Inc., priority 2001, dated 2003).

System: Caco-2 cells
Assay: Membrane permeability (Papp) across Caco-2 cell monolayers
Conditions: Yes/No judgement

SMILES: Cc1nc2n(c(=O)c1CCN1CCC(c3noc4cc(F)ccc34)CC1)CCCC2 [Risperidone, risperidone, reference compound]
- EFFLUX LIMITED: No
